Source: PubChem
Only some compounds are listed: those with a hit (about 1.8% of all), similar ones and a draw of the others.
Cneo AK release – Cryptococcus neoformans cell lysis inducers, primary screen, AK release luminescence, single concentration. C. neoformans lysis, adenylate kinase release luminescence, 4 h; normalised: neutral wells 0, clomiphene wells 100. lysis activity, % at 15 µM. 360,000 tested, 0.2% active;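 active = mean lysis activity across replicates of at least 80%, whatever share of replicates individually reach that level; inactive = mean lysis activity below 80%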
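Assay system: log-phase C. neoformans yeast / Quantity: yeast cell density of 5 × 10^6 cells/mL / Medium: fresh YPD growth medium / Compound: single dose / Timing: static 4 h at 37 °C with compound, 1 h detection / Measured by: adenylate kinase release luminescence / Read-out: lysis from increased AK signal / Benchmarks: Clomiphene as positive lysis control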
E-sel inducer – E-selectin induction in HUVECs, primary screen, imaging, HUVEC, immunofluorescence imaging, single point; P16581; normalized: neutral wells 0, TNF-alpha wells 100; activation, % at 7.58 µM; 260,000 tested, 0.37% active; AID 686992, 2013;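 active = mean E-selectin-positive cell signal at least 10% of the positive control, reached in at least 60% of replicates, without over 20% cell loss; inconclusive = no rule given, readout overlaps actives, possibly toxicity-flagged; inactive = the rest, including those meeting only one limit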
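Assay system: HUVEC, human umbilical vein endothelial cells / Amount: 3,000 HUVEC/well / Controls: TNF-alpha positive control, DMSO neutral control / Compound dosing: single concentration / Medium: EGM-2 over gelatin coat / Evaluation: percent E-selectin-positive cells / Signal: immunofluorescence imaging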
UUG fidelity – modulators of yeast start codon fidelity, primary screen, whole organism, S. cerevisiae, single point, plate reader; S. cerevisiae UUG-firefly luciferase reporter, luminescence/redox ratio; activity score, % at 18.7 µM; 0.13% of 350,000 active; AID 602363, 2012;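 active = replicate mean at a twofold rise or more, about +100% in these data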;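 also: firefly luciferase made from a UUG start codon reports start codon fidelity; reporter light over untreated wells divided by growth signal over untreated wells; some hits fall short of that in this replicate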
DENV2 CPE rescue – inhibitors of DENV2 cytopathic effect, primary screen, cell-based, plate reader, single concentration | DENV2-infected cells, cytopathic effect rescue | CPE inhibition, % at 9.99 µM | 350,000 tested, 1.7% active | AID 651640, 2012; in the data active = CPE inhibition above about 20%, passing the limit was not always enough; inconclusive = no clear call, values can overlap the other calls; tested in BHK-21 cells;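 note: 0% = median of neutral control wells and 100% = median of positive control wells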
* hit, by the source's call; ? = inconclusive; . = no result given; ! = not confirmed by another sample.

mol | Cneo AK release | E-sel inducer | UUG fidelity | DENV2 CPE rescue
C[C@H]1CN([C@@H](C)CO)S(=O)(=O)c2ccc(Br)cc2O[C@@H]1CN(C)C(=O)CCN1CCCCC1 | 80*! | 0 | 6 | ?
C[C@@H]1CN([C@H](C)CO)S(=O)(=O)c2ccc(Br)cc2O[C@@H]1CN(C)C(=O)CN1CCOCC1 | 9 | -2 | -12 | 55*!
C[C@@H]1CN([C@@H](C)CO)C(=O)c2cc(-c3ccncc3)cnc2O[C@H]1CN(C)C(=O)NC1CCCC1 | -1 | 0 | 3 | -12
C[C@H]1CN([C@@H](C)CO)C(=O)Cc2cc(NS(=O)(=O)c3cccs3)ccc2O[C@@H]1CN(C)S(=O)(=O)c1ccccc1 | 2 | -1 | 7 | 41*
C[C@@H]1CN([C@H](C)CO)C(=O)Cc2cc(NS(=O)(=O)c3cccs3)ccc2O[C@@H]1CN(C)C(=O)Nc1ccccc1 | -1 | 0 | -4 | 2
CC(C)NC(=O)N(C)C[C@@H]1Oc2ccc(NS(=O)(=O)c3cccs3)cc2CC(=O)N([C@H](C)CO)C[C@@H]1C | -3 | 26* | -14 | 0
C[C@H]1CN([C@@H](C)CO)C(=O)Cc2cc(NS(=O)(=O)c3cccs3)ccc2O[C@H]1CN(C)C(=O)Nc1ccc(F)cc1 | 0 | 14 | -13 | 1
C[C@@H]1CN([C@@H](C)CO)C(=O)Cc2cc(NS(=O)(=O)c3cccs3)ccc2O[C@H]1CN(C)C(=O)Nc1ccc(F)cc1 | 1 | 30* | 11 | 1
C[C@@H]1CN([C@@H](C)CO)C(=O)CCCn2cc(nn2)CO[C@@H]1CN(C)C(=O)OCc1ccccc1 | . | 2 | . | .
O=C(C[C@@H]1CC[C@H](NC(=O)Nc2cc(F)ccc2F)[C@H](CO)O1)Nc1ccccc1 | 0 | 0 | -3 | -3
C[C@H](CO)N1C[C@H](C)[C@H](CN(C)Cc2ccc(C(=O)O)cc2)Oc2ccc(NC(=O)NC3CCCCC3)cc2CC1=O | 0 | 6 | -4 | 1
Cc1noc(C)c1S(=O)(=O)Nc1ccc2c(c1)C(=O)N([C@@H](C)CO)C[C@@H](C)[C@H](CN(C)Cc1ccc3c(c1)OCO3)O2 | . | 1 | . | .

(continued)
mol | Cneo AK release | E-sel inducer | UUG fidelity | DENV2 CPE rescue
Cc1noc(C)c1S(=O)(=O)Nc1ccc2c(c1)C(=O)N([C@@H](C)CO)C[C@@H](C)[C@@H](CN(C)Cc1ccc3c(c1)OCO3)O2 | -6 | 33* | -17 | 32*
Cc1noc(C)c1S(=O)(=O)Nc1ccc2c(c1)C(=O)N([C@@H](C)CO)C[C@H](C)[C@@H](CN(C)Cc1ccc(Cl)c(Cl)c1)OCCCC[C@H](C)O2 | . | 0 | . | 23*
Cc1noc(C)c1S(=O)(=O)Nc1ccc2c(c1)C(=O)N([C@@H](C)CO)C[C@@H](C)[C@H](CN(C)Cc1ccc3c(c1)OCO3)OCCCC[C@H](C)O2 | 101* | 0 | 28 | 5
Cc1noc(C)c1S(=O)(=O)Nc1ccc2c(c1)C(=O)N([C@H](C)CO)C[C@H](C)[C@@H](CN(C)Cc1ccc(Cl)c(Cl)c1)OCCCC[C@H](C)O2 | . | 0 | . | 1
Cc1noc(C)c1S(=O)(=O)Nc1ccc2c(c1)C(=O)N([C@H](C)CO)C[C@@H](C)[C@@H](CN(C)Cc1ccc3c(c1)OCO3)OCCCC[C@H](C)O2 | 3 | 0 | 28 | -7
COCC(=O)N[C@@H]1CC[C@@H](CC(=O)N2CCCCC2)O[C@H]1CO | 8 | 0 | -14 | 1
C[C@@H]1CN([C@H](C)CO)C(=O)c2cc(NC(=O)CCN3CCOCC3)ccc2O[C@@H]1CN(C)S(=O)(=O)c1ccc(F)cc1 | 1 | 0 | -20 | 1
C[C@H](CO)N1C[C@H](C)[C@@H](CN(C)S(=O)(=O)c2ccccc2)OCCCC[C@H](C)Oc2ccc(NC(=O)CCCN(C)C)cc2C1=O | 53 | 0 | 71 | -1
C[C@@H]1CCCCO[C@@H](CN(C)S(=O)(=O)c2ccccc2)[C@H](C)CN([C@@H](C)CO)C(=O)c2cc(NC(=O)CCCN(C)C)ccc2O1 | -5 | 0 | 19 | 26*
C[C@@H]1CN([C@@H](C)CO)C(=O)c2cc(NC(=O)CCCN(C)C)ccc2O[C@@H](C)CCCCO[C@@H]1CN(C)S(=O)(=O)c1ccccc1 | -2 | 0 | -1 | 31*
C[C@@H]1CN([C@H](C)CO)C(=O)c2cc(NC(=O)CCCN(C)C)ccc2O[C@@H](C)CCCCO[C@H]1CN(C)S(=O)(=O)c1ccccc1 | -6 | 0 | 24 | 23*
C[C@@H]1CN([C@@H](C)CO)C(=O)c2cc(NC(=O)CCCN(C)C)ccc2O[C@@H](C)CCCCO[C@H]1CN(C)S(=O)(=O)c1ccccc1 | -4 | 0 | 9 | 15

Following part
Field names: A = Cneo AK release; B = E-sel inducer; C = UUG fidelity; D = DENV2 CPE rescue
> C[C@H]1CCCCO[C@H](CN(C)S(=O)(=O)c2ccccc2)[C@@H](C)CN([C@@H](C)CO)C(=O)c2cc(NC(=O)CCCN(C)C)ccc2O1
  A: 4; B: 0; C: 15; D: 41*
> C[C@@H]1CCCCO[C@@H](CN(C)C(=O)Nc2ccc(C(F)(F)F)cc2)[C@H](C)CN([C@H](C)CO)C(=O)c2cc(NC(=O)NC3CCCCC3)ccc2O1
  A: 0; B: .; C: 1; D: 1
> CCCC(=O)Nc1ccc2c(c1)C(=O)N(C)C[C@@H](OC)[C@H](C)CN(Cc1ccncc1)[C@@H](C)CO2
  A: .; B: 1; C: .; D: .
> CCCNC(=O)C[C@H]1CC[C@H]2[C@@H](COc3ccc(NC(=O)c4cc(F)cc(F)c4)cc3C(=O)N2C)O1
  A: -3; B: .; C: -11; D: -4
> O=C(O)Cc1ccc(NC(=O)c2ccc(NC(=O)C3CC3)cc2)cc1
  A: 2; B: -1; C: -16; D: 82*
> O=C(Nc1ccc(Cc2ccc(NC(=O)C3CC3)cc2)cc1)C1CC1
  A: .; B: -2; C: .; D: -4
> C[C@H]1CN([C@@H](C)CO)C(=O)c2cc(/C=C/c3ccccc3)cnc2O[C@@H]1CN(C)S(C)(=O)=O
  A: 3; B: -2; C: -4; D: 0
> CCC(=O)N(C)C[C@H]1Oc2ncc(/C=C/c3ccccc3)cc2C(=O)N([C@@H](C)CO)C[C@@H]1C
  A: 4; B: 0; C: 9; D: 42*
> C[C@H](CO)N1C[C@H](C)[C@H](CN(C)S(=O)(=O)c2cn(C)cn2)Oc2ncc(/C=C/c3ccccc3)cc2C1=O
  A: 97*!; B: 1; C: 4; D: -8
> C[C@@H]1CN([C@@H](C)CO)C(=O)c2cc(/C=C/c3ccccc3)cnc2O[C@@H]1CN(C)S(C)(=O)=O
  A: 83*; B: 4; C: 26; D: 4
> O=C(NC[C@@H]1N[C@@H](CO)[C@H]1c1ccc(C2=CCCCC2)cc1)c1ccc(F)cc1
  A: 4; B: 0; C: -1; D: 52*
> O=S(=O)(NC[C@@H]1N[C@H](CO)[C@@H]1c1ccc(C2=CCCC2)cc1)c1ccccc1
  A: 53; B: 0; C: -6; D: -11
> O=S(=O)(NC[C@H]1N[C@@H](CO)[C@H]1c1ccc(C2=CCCC2)cc1)c1ccccc1
  A: 61; B: 0; C: 17; D: 32*
> COCC(=O)NC[C@@H]1N[C@@H](CO)[C@H]1c1ccc(C2=CCCC2)cc1
  A: 93*; B: 0; C: -4; D: ?

Looked up by structure from above:
Field names: A = Cneo AK release; B = E-sel inducer; C = UUG fidelity; D = DENV2 CPE rescue
> C[C@H](CO)N1C[C@H](C)[C@@H](CN(C)S(=O)(=O)c2ccccc2)OCCCC[C@H](C)Oc2ccc(NC(=O)CCCN(C)C)cc2C1=O
  A: 53; B: 0; C: 71; D: -1
> C[C@@H]1CN([C@@H](C)CO)C(=O)c2cc(NC(=O)CCCN(C)C)ccc2O[C@@H](C)CCCCO[C@H]1CN(C)S(=O)(=O)c1ccccc1
  A: -4; B: 0; C: 9; D: 15
> CCCNC(=O)C[C@H]1CC[C@H]2[C@@H](COc3ccc(NC(=O)c4cc(F)cc(F)c4)cc3C(=O)N2C)O1
  A: -3; B: .; C: -11; D: -4
> O=C(NC[C@@H]1N[C@@H](CO)[C@H]1c1ccc(C2=CCCCC2)cc1)c1ccc(F)cc1
  A: 4; B: 0; C: -1; D: 52*
